One experiment concerns the target GDH (Homo sapiens, UniProt P00367). The experiment can be described thus: GDH inhibition IC50. It counts as biochemical.
The next experiment deals with A 549 lung cancer cells. The experiment is described as follows: Inhibition of A549 lung cancer cells. The class given is cell-based. An excerpt: The molecular structure of specific compounds is described as follows: […]

By UniProt entry, the sequences of proteins in these tests, tags left out. Residues count along the entry.
UniProt P00367, 54-558: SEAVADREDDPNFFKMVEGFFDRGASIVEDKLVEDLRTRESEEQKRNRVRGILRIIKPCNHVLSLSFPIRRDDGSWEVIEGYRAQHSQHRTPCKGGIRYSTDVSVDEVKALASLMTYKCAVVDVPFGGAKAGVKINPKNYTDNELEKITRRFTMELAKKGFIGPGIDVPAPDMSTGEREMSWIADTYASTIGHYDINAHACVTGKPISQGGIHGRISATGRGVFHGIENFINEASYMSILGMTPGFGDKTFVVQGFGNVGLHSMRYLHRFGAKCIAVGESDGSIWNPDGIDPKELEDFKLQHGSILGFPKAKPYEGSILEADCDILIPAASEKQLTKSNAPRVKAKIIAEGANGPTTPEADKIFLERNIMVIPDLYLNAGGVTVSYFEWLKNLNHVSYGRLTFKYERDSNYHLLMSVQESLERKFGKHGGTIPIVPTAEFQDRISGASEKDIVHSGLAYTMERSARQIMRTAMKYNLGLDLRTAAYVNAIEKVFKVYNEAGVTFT

The structures appear in SMILES notation.

These results are taken from patent US10975048B2, “Composition of 1,3,4-selenadiazole containing compounds with pharmacological activity” (HANGZHOU JENNIFER BIOTECH CO., LTD, priority 2015, dated 2021).

`Nc1nnc(CCSCCc2nnc(NC(=O)Cc3ccccc3)s2)s1`: the IC50 (commonly the concentration that gives 50% inhibition) was more than 10 µM at GDH and 9 µM in the experiment with A 549 lung cancer cells (Homo sapiens, A549, read-out: A549 IC50). In addition, in the experiment on A 549 lung cancer cells, the “A549 Max-INH” value is given as 50%.
